# DT40 TDP1 CPT – DT40-hTDP1 cell growth loss with CPT; Potency, µM (doses to about 46.2 µM), inactives show at the top dose activity change, negative = growth inhibition, hits mostly inhibitors; 420,000 tested, 12% active; chicken DT40 Tdp1-/-;hTDP1 cells + 20 nM CPT, ATP luminescence, 48 h; further: potency means the concentration at half of the fitted maximal effect; on the % scale 0 is the no-effect control and ±100 the full control effect; nearly all actives have a fitted effect of over 55% in size
#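 Chicken DT40 Tdp1-/- cells stably complemented with human TDP1 were seeded at 400 cells/well in medium containing 20 nM camptothecin, exposed to pin-transferred compounds, and grown at 37 °C for at least 48 hr. Viability was read as ATP luminescence.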
# miR-21 reporter – raises the signal of a miR-21 reporter | HeLa miR-21 FLuc reporter, luciferase, 48 h | Potency, µM (highest dose often 38.3 µM), inactives show at the highest dose reporter change, positive = more light | 340,000 tested, under 10 active | AID 2288; active = well fitted rising curve with a large enough effect; inconclusive = small, poorly fitted or top-dose-only effect; inactive = no such curve, though single readings can be large or run the other way;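 note: % of control where 0% means no effect; miR-21 action dims this reporter so a rising signal means less miR-21 action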
#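 HeLa miR-21-FLuc reporter line, endogenous miR-21; 2000 cells/well in DMEM/10% FBS; compound titration up to ~40uM final, 48 h, 37 degree Celsius; luciferase detection reagent, 15 min lysis, CCD luminescence.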
# DT40 TDP1 no CPT – qHTS for Inhibitors of human tyrosyl-DNA phosphodiesterase 1 (TDP1): qHTS in cells in absence of CPT. DT40 Tdp1-/- hTDP1 cells, no CPT, ATP luminescence, 48 h. Potency, µM (highest dose often 46.2 µM), without a hit: at the top dose activity change, negative = growth inhibition, usual class: inhibitors. 420,000 tested, 15% active. AID 686978, 2013; further: potency means the concentration at half of the fitted maximal effect; on the % scale 0 is the no-effect control and ±100 the full control effect; nearly all actives have a fitted effect of over 55% in size
#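 Growth kinetics read by CellTiter-Glo luminescence after ≥48 hr at 37 °C. Cells: DT40 Tdp1-/- stably carrying human TDP1, 400 per well, compound exposure in the absence of CPT (DMSO vehicle).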
# uPA surface inh – inhibitors of cell surface uPA generation; cell surface uPA generation assay, qHTS; Potency, µM (highest dose often 38.3 µM), inactives show at the highest dose activity change, negative = inhibition, actives largely listed as inhibitors; 330,000 tested, 0.31% active; AID 540303; active means well fitted inhibition curve with a large enough effect; inconclusive means small, poorly fitted or top-dose-only effect; inactive means no such curve, though single readings can be large or run the other way; tested in mouse RAW 264.7 cells; further: potency means the concentration at half of the fitted maximal effect; on the % scale 0 is the no-effect control and ±100 the full control effect; nearly all actives have a fitted effect of over 55% in size
# TDP1 block – blocks human tyrosyl-DNA phosphodiesterase 1 | Q9NUW8 | Potency, µM (highest dose often 130 µM), for inactives: at the top dose activity change, negative = inhibition, actives largely listed as inhibitors | recombinant TDP1, AlphaScreen DNA substrate cleavage | 350,000 tested, 0.28% active; further: potency means the concentration at half of the fitted maximal effect; on the % scale 0 is the no-effect control and ±100 the full control effect; nearly all actives have a fitted effect of over 40% in size
#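 Compounds were preincubated with Tdp1 (1 nM final) for 15 min at room temperature before substrate (15 nM final) started a 5 min reaction; beads (10 ug/ml final) were then added for 10 min before AlphaScreen detection.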
# Active calls of the source: *; ? = inconclusive; . = no result; [ ] = remark or other dose. Rows were chosen to be rich in hits. Some 16% of all compounds tested hit in one or more screens of this group. Unless noted, the call rests on the fitted dose curve; in most records, active means well fitted curve in the direction sought with a large enough effect; inconclusive means small, poorly fitted or top-dose-only effect, or another doubt; inactive means no such curve, though single readings can be large; an effect the other way counts as inactive or inconclusive.
# The line under a structure holds: DT40 TDP1 CPT | miR-21 reporter | DT40 TDP1 no CPT | uPA surface inh | TDP1 block
- Cc1ccc2nc(C3CCCN(C(=S)Nc4cccc(C)c4C)C3)[nH]c2c1 (configuration not stated)
    ? | 16.3% | 18.4µM* | ? | 8.3%
- CCOc1ccc(N(CC(=O)NCc2ccc(Cl)cc2)S(=O)(=O)c2c(C)noc2C)cc1
    ? | -0.9% | ? | 17.4% | 0.5%
- N=C1/C(=C\c2ccc(SCc3ccccc3)o2)C(=O)N=C2SC(CC(=O)N3CCOCC3)=NN12
    -10.3% | 0.0% | -8.4% | 7.7% | 3.8%
- N=C1/C(=C\c2ccc(-c3cccc(C(=O)O)c3)o2)C(=O)N=C2SC=C(c3ccccc3)N12
    ? | -4.3% | ? | 2.6% | 50.1µM*
- Cc1cc(/C=C2/C(=N)N3C(c4ccccc4)=CSC3=NC2=O)c(C)n1-c1ccccc1
    13µM* | -9.0% | 13µM* | -5.2% | 4.4%
- CC(C)(C)OC(=O)CN1C(=O)S/C(=C\c2ccc(-c3cccc(C(=O)O)c3)o2)C1=O
    . | -14.1% | . | . | .
- COc1ccccc1-n1c(C)cc(/C=C2\C(=N)N3N=C(CC(=O)N4CCOCC4)SC3=NC2=O)c1C
    18.4µM* | -15.7% | ? | 10.5% | 8.2%
- CC1=NN2C(=N)/C(=C\c3cc(C)n(-c4ccccc4)c3C)C(=O)N=C2S1
    -12.0% | -10.0% | -6.8% | 0.9% | 1.1%
- N=C1/C(=C/c2ccc(-c3cccc(C(=O)O)c3)o2)C(=O)N=C2SC(CC(=O)N3CCOCC3)=NN12
    -10.7% | -3.5% | 20.6% | 7.1% | 8.91µM*
- COc1cc(/C=N/n2nnnc2N)ccc1OC(C)=O
    -4.6% | -1.9% | -28.0% | 2.5% | 2.1%
- CC1CCCN(C(=O)CCNS(=O)(=O)c2ccc3c(c2)c(=O)n(C)c(=O)n3C)C1 (configuration not stated)
    -1.2% | 2.7% | 13.8% | -6.0% | 4.5%
- CC1=[N+](C)c2c(ccc3cccnc23)C1(C)C
    0.326µM* | ? | 1.84µM* | -19.6% | 12.0%
- COc1cc(OC)c(C(=O)COc2ncnc3ccccc23)c(OC)c1
    ? | -1.1% | ? | 0.0% | 2.1%
- Cc1ccc(C)c(C(=O)COc2ncnc3ccccc23)c1
    18.4µM* | -25.2% | ? | 0.4% | 0.0%
- COc1ccc2oc(C(=O)OCC(=O)Nc3ccc(C)c(S(=O)(=O)N4CCOCC4)c3)c(C)c2c1
    1.5% | . | -2.9% | . | .
- CNCCCC1Sc2ccccc2Oc2ccccc21 (configuration not stated)
    ? | -18.4% | 14.6µM* | 3.8% | -14.2%
- O=C1CC(=O)Nc2cc(S(=O)(=O)N3CCOc4ccc(Cl)cc43)ccc2N1
    ? | 4.2% | ? | 7.2% | -2.8%
- CC(C)CCNC(=O)CCCc1ccccc1
    7.3% | 0.6% | -1.2% | 3.7% | 0.0%
- CC(C)(C)c1ccc(OCC(=O)N(c2ccccn2)C2CCCCC2)cc1
    ? | -3.1% | 14.6µM* | -7.0% | 2.7%
- O=C(COCCOCC(=O)N(c1ccccn1)C1CCCCC1)N(c1ccccn1)C1CCCCC1
    13.0% | -2.1% | -0.8% | -9.2% | 7.3%
- O=C(COc1ccc(Cl)cc1Cl)N(c1ccccn1)C1CCCCC1
    25.9µM* | -20.7% | ? | 1.4% | -2.3%
- Cc1ccc(OCC(=O)N(c2ccccn2)C2CCCCC2)c(C)c1
    ? | -10.0% | ? | 0.3% | 3.5%
- CCOC(=O)c1c(S(=O)(=O)NCc2ccc(C)o2)c(C)n(C)c1C
    ? | -0.1% | -12.7% | -13.5% | 3.2%
- O=C1NC(Cc2ccccc2)c2nc3ccccc3c(=O)n2-c2cc(Cl)ccc21 (configuration not stated)
    . | . | . | . | 0.0%
- Cc1ccc(C2(C)NC(=O)N(CC(=O)Nc3cccnc3Cl)C2=O)cc1 (configuration not stated)
    -27.0% | -2.4% | -11.8% | -0.9% | 3.8%
- Cc1cc(C)n(-c2ccc(Cl)c(C(=O)O)c2)n1
    7.9% | -44.9% | -4.9% | 6.2% | 0.0%
- Cc1cc(/C=N/NC(=O)Cn2c3ccccc3c(=O)c3ccccc32)c(C)n1-c1ccc(Cl)cc1
    ? | -6.7% | 29.1µM* | -0.3% | 5.4%
- Cc1cc(/C=N/NC(N)=S)c(C)n1-c1ccc(Cl)c(Cl)c1
    2.59µM* | ? | 3.66µM* | -2.0% | 7.8%
- CCNC(=S)N/N=C/c1cc(C)n(-c2ccc(Cl)cc2)c1C
    18.4µM* | -38.0% | 20.6µM* | -10.1% | 6.5%
- Cc1ccc(-n2c(C)cc(/C=N/NC(=O)Cn3c4ccccc4c(=O)c4ccccc43)c2C)cc1
    ? | -6.1% | ? | -0.3% | 5.5%

# Looked up one by one from the entries so far:
# The line under a structure holds: DT40 TDP1 CPT | miR-21 reporter | DT40 TDP1 no CPT | uPA surface inh | TDP1 block
- CNCCCC1Sc2ccccc2Oc2ccccc21 (configuration not stated)
    ? | -18.4% | 14.6µM* | 3.8% | -14.2%
- CC(C)(C)c1ccc(OCC(=O)N(c2ccccn2)C2CCCCC2)cc1
    ? | -3.1% | 14.6µM* | -7.0% | 2.7%

# Some of the entries so far, with tabs:
Compound	DT40 TDP1 CPT	miR-21 reporter	DT40 TDP1 no CPT	uPA surface inh	TDP1 block
CCOC(=O)c1c(S(=O)(=O)NCc2ccc(C)o2)c(C)n(C)c1C	?	-0.1%	-12.7%	-13.5%	3.2%
O=C1NC(Cc2ccccc2)c2nc3ccccc3c(=O)n2-c2cc(Cl)ccc21 (configuration not stated)	.	.	.	.	0.0%
Cc1ccc(C2(C)NC(=O)N(CC(=O)Nc3cccnc3Cl)C2=O)cc1 (configuration not stated)	-27.0%	-2.4%	-11.8%	-0.9%	3.8%

# The listing continues:
# The line under a structure holds: DT40 TDP1 CPT | miR-21 reporter | DT40 TDP1 no CPT | uPA surface inh | TDP1 block
- Cc1ccc(-n2c(C)cc(/C=N/NC(=O)c3ccncc3)c2C)cc1C
    ? | -3.5% | ? | -1.8% | 10.8%
- Cc1nc2ccccn2c1C(=O)N/N=C/c1cc(C)n(-c2ccc(Cl)cc2)c1C
    16.4µM* | -5.5% | 14.6µM* | 3.9% | 7.3%
- COc1ccc(-c2nc(N)nc(C)c2-c2ccc(Cl)cc2)c(O)c1
    -32.8% | 4.7% | -16.6% | 4.3% | .
- Cc1nc(N)nc(N)c1-c1ccc(Cl)c(Cl)c1
    0.259µM* | . | 0.164µM* | -6.5% | .
- Cc1cc(OCCCn2cnc3ccccc3c2=O)ccc1[N+](=O)[O-]
    ? | -2.5% | ? | -0.2% | -2.3%
- Cc1nc(N)nc(N)c1CCCc1ccc(Cl)c(Cl)c1
    10.3µM* | . | 2.59µM* | -5.8% | .
- Nc1nc(N)nc(-c2cccc([N+](=O)[O-])c2)n1
    -21.5% | . | ? | . | .
- Nc1nc(N)nc(-c2ccc(Cl)c(Cl)c2)n1
    20.6µM* | . | 11.6µM* | -27.1% | 0.2%
- Cc1cc(OCc2nc(N)nc(N)c2-c2ccc(Cl)c(Cl)c2)ccc1[N+](=O)[O-]
    0.581µM* | . | 0.13µM* | -9.7% | .
- COc1ccc(-c2oc3ncn4nc(COc5ccc(Cl)cc5)nc4c3c2-c2ccc(OC)cc2)cc1
    -24.8% | -2.2% | -27.1% | . | -4.0%[12.3 µM]
- Cc1ccc([C@H]2C[C@H](n3cc(C4CC4)nn3)[C@@H](O)CN2C(=O)C2CCCCC2)cc1
    11.5% | . | 4.0% | . | .
- O=S(OCCN1CCOCC1)C(c1ccccc1)c1ccccc1 (configuration not stated)
    ? | . | ? | -2.7% | .
- N#Cc1ccccc1NC(=O)COC(=O)/C=C/c1ccc(S(=O)(=O)N2CCOCC2)cc1
    6.3% | . | -8.5% | -13.3% | -2.8%
- COc1cc(OC)cc(-c2c(-c3cccs3)c3cc(Br)ccc3n2C)c1
    6.5% | . | -16.0% | -1.2% | -0.5%
- COc1cc(OC)cc(-c2c(-c3cccs3)c3cc(-c4cccc5[nH]ccc45)ccc3n2C)c1
    ? | . | ? | 3.2% | 2.4%
- COc1cc(OC)cc(-c2c(-c3cccs3)c3cc(-c4ccc5c(c4)OCO5)ccc3n2C)c1
    ? | . | ? | 8.6% | -0.2%
